Chains of the proteins cited; added tags and fusions are not shown. Residues count along the entry.
UniProt Q15116, 25-167 limits assumed: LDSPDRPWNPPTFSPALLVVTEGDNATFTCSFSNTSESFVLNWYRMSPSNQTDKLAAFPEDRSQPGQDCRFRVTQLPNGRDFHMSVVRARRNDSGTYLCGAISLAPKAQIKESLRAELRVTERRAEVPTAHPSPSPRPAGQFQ

According to US20210324028A1 (Pfizer, published 2021):

Target: T1, human PD-1 (human, UniProt Q15116 25-167, limits assumed)
T1 construct: also called hPD-1
Test: SPR

Kd: 3.44 nM | koff: 0.000596 s⁻¹ | kon: 173000 M⁻¹ s⁻¹ | t1/2: 1160 s
B1: xhPD1-hIL15 NQ mutant (other)
heavy 1: not shown
heavy 2: not shown
light: DIQMTQSPSSLSASVGDRVTITCKSSQSLWDSGNQKNFLTWYQQKPGKAPKLLIYWTSYRESGVPSRFSGSGSGTDFTLTISSLQPEDFATYYCQNDYFYPLTFGGGTKVEIKRTVAAPSVFIFPPSDEQLKSGTASVVCLLNNFYPREAKVQWKVDNALQSGNSQESVTEQDSKDSTYSLSSTLTLSKADYEKHKVYACEVTHQGLSSPVTKSFNRGEC
